# Reference: US4495356A, “1,4-Dihydropyridine compound” (Nikken Chemicals Co., Ltd., priority 1982, dated 1985)
# Assay: in vivo
# Conditions: rat, oral, rats 5 week age, observed for 3 days
smiles,measurement,value
"COC(=O)C1=C(C)NC(C)=C(C(=O)OC)C1C1=COCCO1 [Example 3, 3,5-dimethoxycarbonyl-4-2'-(5',6'-dihydro-p-dioxinyl)-2,6-dimethyl-1,4-dihydropyridine]",LD50 at 72 h,≥ 2000 mg/kg
